Permeability data for macrocyclic peptides

Data: CycPeptMPDB; original report Townsend et al. 2020, doi:10.26434/chemrxiv.13335941.v1.

PAMPA measures passive passage through an artificial lipid membrane.
P is given in units of 10^-6 cm/s (from log10 values with two decimals); larger means faster passage.

| structure (SMILES) | PAMPA (10^-6 cm/s) |
|---|---|
| CC(C)C[C@@H]1NC(=O)[C@H]2CCCN2C(=O)CN(Cc2ccccc2)C(=O)[C@@H](CC(C)C)NC(=O)[C@H](C)NC(=O)[C@@H]2CCCN2C(=O)[C@H](Cc2ccccc2)NC1=O | 0.13 |
| CC(C)C[C@@H]1C(=O)N[C@@H](Cc2ccccc2)C(=O)N[C@H](C)C(=O)N[C@H](CC(C)C)C(=O)N(Cc2ccccc2)CC(=O)N2CCC[C@@H]2C(=O)N1C | 0.81 |
| CC(C)C[C@@H]1C(=O)N[C@H](CC(C)C)C(=O)N2CCC[C@H]2C(=O)N[C@H](CC(C)C)C(=O)N[C@@H](Cc2ccccc2)C(=O)N(C)[C@@H](C)C(=O)N1C | 8.3 |
| CCCN1CC(=O)N(C)[C@@H](CC(C)C)C(=O)N[C@@H](Cc2ccccc2)CC(=O)N2CCC[C@H]2C(=O)N[C@H](CC(C)C)C(=O)N[C@@H](Cc2ccccc2)C(=O)N2CCC[C@@H]2C1=O | 1.1 |
| CC(C)C[C@H]1C(=O)N(Cc2ccccc2)CC(=O)N2CCC[C@H]2C(=O)N(C)[C@@H](CC(C)C)C(=O)N[C@@H](Cc2ccccc2)C(=O)N[C@@H](Cc2ccccc2)CC(=O)N1C | 5.1 |
| CC(C)C[C@H]1NC(=O)[C@@H](C)NC(=O)[C@H](Cc2ccccc2)NC(=O)[C@H](CC(C)C)N(C)C(=O)[C@H]2CCCN2C(=O)[C@H](CC(C)C)N(C)C1=O | 3.2 |
| CC(C)C[C@@H]1C(=O)N[C@@H](Cc2ccccc2)C(=O)N2CCC[C@@H]2C(=O)N[C@@H](Cc2ccccc2)CC(=O)N(C)[C@@H](CC(C)C)C(=O)N[C@H](CC(C)C)C(=O)N2CCC[C@@H]2C(=O)N1C | 4.3 |
| CC(C)C[C@@H]1NC(=O)[C@@H](CC(C)C)N(C)C(=O)[C@H](C)NC(=O)[C@H](Cc2ccccc2)NC(=O)[C@@H](CC(C)C)N(C)C(=O)[C@H]2CCCN2C1=O | 12 |
| CC(C)C[C@@H]1NC(=O)[C@@H](C)N(C)C(=O)[C@H](Cc2ccccc2)NC(=O)[C@H](CC(C)C)NC(=O)[C@H]2CCCN2C(=O)[C@@H](CC(C)C)NC1=O | 0.41 |
| CC(C)C[C@@H]1NC(=O)[C@@H](CC(C)C)NC(=O)[C@@H](C)NC(=O)[C@@H]2CCCN2C(=O)[C@H](Cc2ccccc2)NC(=O)[C@@H](CC(C)C)NC(=O)[C@H]2CCCN2C1=O | 0.85 |
| CC(C)C[C@@H]1NC(=O)[C@@H]2CCCN2C(=O)CN(Cc2ccccc2)C(=O)[C@@H](CC(C)C)N(C)C(=O)[C@H](C)NC(=O)[C@H](Cc2ccccc2)NC1=O | 1.2 |
| CCCN1CC(=O)N(C)[C@H](CC(C)C)C(=O)N(C)[C@@H](CC(C)C)C(=O)N2CCC[C@@H]2C(=O)N[C@@H](CC(C)C)C(=O)N[C@@H](Cc2ccccc2)C(=O)N2CCC[C@H]2C1=O | 4.6 |
| CCCN1CC(=O)N[C@@H](CC(C)C)C(=O)N[C@@H](CC(C)C)C(=O)N2CCC[C@H]2C(=O)N(Cc2ccccc2)CC(=O)N[C@@H](Cc2ccccc2)C(=O)N2CCC[C@H]2C1=O | 2.2 |
| CCCN1CC(=O)N[C@@H](CC(C)C)C(=O)N[C@@H](CC(C)C)C(=O)N2CCC[C@H]2C(=O)N[C@H](CC(C)C)C(=O)N[C@@H](Cc2ccccc2)C1=O | 0.83 |
| CC(C)C[C@@H]1C(=O)N2CCC[C@H]2C(=O)N(C)[C@H](CC(C)C)C(=O)N[C@@H](Cc2ccccc2)C(=O)N2CCC[C@@H]2C(=O)N[C@@H](Cc2ccccc2)CC(=O)N(C)[C@@H](CC(C)C)C(=O)N1C | 3 |
| CCCN1CC(=O)N(C)[C@@H](CC(C)C)C(=O)N(Cc2ccccc2)CC(=O)N2CCC[C@H]2C(=O)N(C)[C@@H](CC(C)C)C(=O)N[C@@H](Cc2ccccc2)C(=O)N2CCC[C@H]2C1=O | 4.9 |
| CC(C)C[C@@H]1NC(=O)[C@@H](C)N(C)C(=O)[C@@H]2CCCN2C(=O)[C@H](Cc2ccccc2)NC(=O)CN(Cc2ccccc2)C(=O)[C@H]2CCCN2C(=O)[C@H](CC(C)C)N(C)C1=O | 1.9 |
| CC(C)C[C@H]1C(=O)N(Cc2ccccc2)CC(=O)N2CCC[C@H]2C(=O)N(C)[C@@H](CC(C)C)C(=O)N[C@@H](Cc2ccccc2)C(=O)N2CCC[C@H]2C(=O)N[C@@H](Cc2ccccc2)CC(=O)N1C | 2 |
| CC(C)C[C@@H]1NC(=O)[C@@H](C)NC(=O)[C@H](Cc2ccccc2)NC(=O)[C@@H](CC(C)C)NC(=O)[C@@H]2CCCN2C(=O)C[C@H](Cc2ccccc2)NC1=O | 0.14 |

The 2 lowest values of PAMPA among the entries above:

| structure (SMILES) | PAMPA (10^-6 cm/s) |
|---|---|
| CC(C)C[C@@H]1NC(=O)[C@H]2CCCN2C(=O)CN(Cc2ccccc2)C(=O)[C@@H](CC(C)C)NC(=O)[C@H](C)NC(=O)[C@@H]2CCCN2C(=O)[C@H](Cc2ccccc2)NC1=O | 0.13 |
| CC(C)C[C@@H]1NC(=O)[C@@H](C)NC(=O)[C@H](Cc2ccccc2)NC(=O)[C@@H](CC(C)C)NC(=O)[C@@H]2CCCN2C(=O)C[C@H](Cc2ccccc2)NC1=O | 0.14 |

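The data file gives no further conditions (lipid, pH, time, direction or concentration), and values from different papers need not be comparable. The list need not hold all peptides of the study. Peptides that the database sets to -10, its floor, are left out.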